Our source for the IC50 values is patent US5140037A, “Treatment of central nervous system disorders with imidazole angiotensin-II receptor antagonists” (E. I. du Pont de Nemours and Company, priority 1990, dated 1992).

The chains behind the UniProt entries cited, without tags or fusion partners. Where a name states a change or a piece, a line headed by the entry shows the natural chain unless it says otherwise.
UniProt P01019: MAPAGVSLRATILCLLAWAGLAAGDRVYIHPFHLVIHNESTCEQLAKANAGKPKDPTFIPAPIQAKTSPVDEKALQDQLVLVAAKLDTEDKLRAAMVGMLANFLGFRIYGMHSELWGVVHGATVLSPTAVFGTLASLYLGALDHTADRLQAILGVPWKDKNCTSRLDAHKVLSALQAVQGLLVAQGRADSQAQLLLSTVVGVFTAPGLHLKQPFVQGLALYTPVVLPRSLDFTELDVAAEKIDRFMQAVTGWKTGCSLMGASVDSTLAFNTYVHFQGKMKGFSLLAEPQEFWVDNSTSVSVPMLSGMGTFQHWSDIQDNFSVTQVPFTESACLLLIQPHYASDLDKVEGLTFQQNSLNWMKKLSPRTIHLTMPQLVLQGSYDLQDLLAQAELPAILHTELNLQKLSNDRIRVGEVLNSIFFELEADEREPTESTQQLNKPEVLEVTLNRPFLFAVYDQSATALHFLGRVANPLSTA

The target of the test is T1, AII-2 receptor (Rattus norvegicus, UniProt P35351).
T1 sequence (P35351 1-363): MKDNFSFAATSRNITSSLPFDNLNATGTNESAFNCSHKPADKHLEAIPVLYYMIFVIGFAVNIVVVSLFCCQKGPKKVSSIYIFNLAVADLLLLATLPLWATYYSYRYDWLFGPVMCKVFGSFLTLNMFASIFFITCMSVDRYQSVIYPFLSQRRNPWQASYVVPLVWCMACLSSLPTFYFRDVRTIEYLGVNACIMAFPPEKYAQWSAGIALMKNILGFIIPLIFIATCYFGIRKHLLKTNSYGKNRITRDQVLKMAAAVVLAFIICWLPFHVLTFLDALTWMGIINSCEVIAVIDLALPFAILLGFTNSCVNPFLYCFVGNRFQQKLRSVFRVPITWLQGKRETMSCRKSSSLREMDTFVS

“AII: Angiotensin II (AII), a circulating hormone, now thought to act as a neuropeptide in the central nervous system (DRVYIHPF; Angiotensin-2; UniProt P01019 25-32, looked up)” registered an IC50 of 0.6 nM.
